Consider two compounds from patent publication US8853418B2, “Cyclopentylpyrazoles as N-type calcium channel blockers” (Janssen Pharmaceutica NV, priority 2012, dated 2014).

The chains behind the UniProt entries cited, without tags or fusion partners. Where a name states a change or a piece, a line headed by the entry shows the natural chain unless it says otherwise.
UniProt Q00975, whole entry, looked up: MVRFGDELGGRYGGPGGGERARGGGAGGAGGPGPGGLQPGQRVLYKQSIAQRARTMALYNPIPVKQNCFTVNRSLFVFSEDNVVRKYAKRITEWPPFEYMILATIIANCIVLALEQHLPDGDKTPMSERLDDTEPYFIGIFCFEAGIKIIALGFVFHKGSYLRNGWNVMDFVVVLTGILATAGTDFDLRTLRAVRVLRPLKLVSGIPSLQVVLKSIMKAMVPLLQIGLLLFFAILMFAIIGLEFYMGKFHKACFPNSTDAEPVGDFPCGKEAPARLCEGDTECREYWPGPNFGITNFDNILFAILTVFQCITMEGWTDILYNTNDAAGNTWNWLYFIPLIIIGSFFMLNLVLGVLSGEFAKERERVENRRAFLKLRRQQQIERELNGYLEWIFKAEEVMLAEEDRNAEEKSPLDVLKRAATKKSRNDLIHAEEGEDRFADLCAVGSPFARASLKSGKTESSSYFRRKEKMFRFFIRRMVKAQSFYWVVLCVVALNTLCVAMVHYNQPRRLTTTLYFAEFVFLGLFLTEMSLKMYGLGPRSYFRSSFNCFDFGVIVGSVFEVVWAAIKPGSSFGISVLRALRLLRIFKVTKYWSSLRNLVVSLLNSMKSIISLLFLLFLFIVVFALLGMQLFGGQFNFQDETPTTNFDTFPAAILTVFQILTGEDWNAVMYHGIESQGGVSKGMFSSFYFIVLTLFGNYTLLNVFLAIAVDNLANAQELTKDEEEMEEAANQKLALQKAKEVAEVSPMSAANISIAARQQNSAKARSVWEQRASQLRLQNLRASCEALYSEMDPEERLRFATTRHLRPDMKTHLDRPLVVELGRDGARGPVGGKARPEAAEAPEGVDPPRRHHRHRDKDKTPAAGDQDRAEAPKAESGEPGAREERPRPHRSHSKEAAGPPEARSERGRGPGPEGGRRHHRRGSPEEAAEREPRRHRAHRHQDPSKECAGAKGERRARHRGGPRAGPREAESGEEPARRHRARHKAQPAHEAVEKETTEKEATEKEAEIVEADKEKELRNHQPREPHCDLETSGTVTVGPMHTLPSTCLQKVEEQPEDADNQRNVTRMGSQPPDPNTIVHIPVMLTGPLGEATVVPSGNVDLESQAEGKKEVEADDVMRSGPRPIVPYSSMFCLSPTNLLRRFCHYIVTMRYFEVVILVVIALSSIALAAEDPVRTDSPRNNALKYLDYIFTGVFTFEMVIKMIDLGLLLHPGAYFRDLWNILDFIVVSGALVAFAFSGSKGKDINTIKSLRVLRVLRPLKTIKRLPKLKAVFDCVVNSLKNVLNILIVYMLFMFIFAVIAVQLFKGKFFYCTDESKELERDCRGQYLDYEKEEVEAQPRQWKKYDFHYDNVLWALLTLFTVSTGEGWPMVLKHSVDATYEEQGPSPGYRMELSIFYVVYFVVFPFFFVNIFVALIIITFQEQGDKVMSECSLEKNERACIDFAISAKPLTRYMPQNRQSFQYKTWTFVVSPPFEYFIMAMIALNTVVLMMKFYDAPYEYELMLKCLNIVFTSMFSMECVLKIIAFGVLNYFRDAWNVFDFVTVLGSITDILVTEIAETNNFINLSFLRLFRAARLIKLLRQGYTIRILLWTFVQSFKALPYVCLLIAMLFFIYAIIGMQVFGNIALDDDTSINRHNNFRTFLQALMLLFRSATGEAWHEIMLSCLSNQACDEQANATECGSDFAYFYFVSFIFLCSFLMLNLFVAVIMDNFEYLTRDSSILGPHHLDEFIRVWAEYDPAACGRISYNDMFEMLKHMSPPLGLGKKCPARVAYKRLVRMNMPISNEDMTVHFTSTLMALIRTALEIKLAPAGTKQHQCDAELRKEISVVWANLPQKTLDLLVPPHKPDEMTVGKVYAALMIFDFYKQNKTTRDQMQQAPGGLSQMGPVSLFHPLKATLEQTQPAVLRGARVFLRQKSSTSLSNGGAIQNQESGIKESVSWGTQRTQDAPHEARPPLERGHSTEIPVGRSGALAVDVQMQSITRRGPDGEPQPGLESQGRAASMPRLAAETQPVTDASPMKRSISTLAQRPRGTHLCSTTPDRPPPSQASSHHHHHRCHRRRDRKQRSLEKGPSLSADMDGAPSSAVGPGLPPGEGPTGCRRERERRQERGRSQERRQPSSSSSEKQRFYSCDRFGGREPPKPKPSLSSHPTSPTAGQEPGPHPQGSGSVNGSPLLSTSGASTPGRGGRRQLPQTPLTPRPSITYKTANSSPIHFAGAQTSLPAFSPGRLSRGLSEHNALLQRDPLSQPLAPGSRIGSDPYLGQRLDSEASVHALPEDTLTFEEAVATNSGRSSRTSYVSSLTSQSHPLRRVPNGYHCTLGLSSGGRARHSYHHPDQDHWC

Molecules are shown by their SMILES. pIC50: −log10 of the molar value.

The assay has as its target N-type calcium channel (α1B (Cav2.2), β3 and α2δ subunits) (Homo sapiens, UniProt Q00975). As to the kind of experiment: Functional Assay: Antagonism of N-Type Calcium Channel (FDSS calcium mobilization, KCl depolarization). In kind it is cell-based. To be noted: read-out: FDSS IC50; HEK cell line, 50 mM KCl depolarization, six-point concentration-response. On the procedure:
A stable cell line (HEK parent) co-expressing the α1B (Cav2.2), β3 and α2δ subunits of the N-type calcium channel subunits was used. These cells were routinely grown as monolayers in low glucose-containing Dulbecco's Modified Eagle Medium supplemented with 10% FBS, 2 mM L-glutamine, 100 I.U./mL penicillin, 100 μg/mL streptomycin, 400 μg/mL G418 and 200 μg/mL Zeocin (split ratio=1:5). Cells were maintained in 5% CO2 at 37° C. Compounds of Formula (I) were prepared as 10 mM stocks in DMSO from neat compound, if available. Otherwise, the 5 or 10 mM DMSO stock solutions provided in-house were used.
Calcium mobilization responses to KCl depolarization were evaluated by measuring the intensity of calcium-mediated fluorescent signal in the presence of BD Calcium Assay Dye (BD Biosciences, Franklin Lakes, N.J., U.S.A.), utilizing a Functional Drug Screening System (FDSS) by Hamamatsu Corporation (Bridgewater, N.J. U.S.A.).
Twenty-four hr prior to assay, cells were seeded in clear-base poly-D-lysine-coated 384-well plates (BD Biosciences) at a density of 5,000 cells per well in culture medium and grown overnight in 5% CO2 at 37° C. […] Utilizing the FDSS, cells were exposed to representative compounds of Formula (I) at varying concentrations, and intracellular calcium was measured for 5 min prior to the addition of 50 mM KCl for an additional 3 min of measurement. […]

As for `COc1ccccc1-n1nc2c(c1-c1ccc(Cl)cc1)C[C@H](OCC1CCC1)C2` [Compound 84, (5S)-3-(4-chlorophenyl)-5-(cyclobutylmethoxy)-2-(2-methoxyphenyl)-2,4,5,6-tetrahydrocyclopenta[c]pyrazole], the negative logarithm of the IC50 (pIC50) is 7.22.

`COc1ccccc1-n1nc2c(c1-c1ccc(Cl)cc1)CC1(C2)O[C@H]2CCCC[C@H]2O1` (stereo partly drawn) [Compound 112, (3aR,7aS)-3′-(4-chlorophenyl)-2′-(2-methoxyphenyl)-2′,3a,4,5,6,6′,7,7a-octahydro-4′H-spiro[1,3-benzodioxole-2,5′-cyclopenta[c]pyrazole]]: the pIC50 is 7.74.
